# Yeast mating assay B: variants of the scFv Ab-14

From the AlphaSeq antibody data of Li et al. 2023 (doi:10.1038/s41467-023-39022-2), copy in the FLAb collection.

Target: peptide PDVDLGDISGINAS, taken from heptad repeat 2 (HR2) of SARS-CoV-2 spike.

Parent: Ab-14, a human scFv built as VH, a 15-residue (Gly4Ser)3 linker, VL. Only the CDRs of the light chain vary.
VH: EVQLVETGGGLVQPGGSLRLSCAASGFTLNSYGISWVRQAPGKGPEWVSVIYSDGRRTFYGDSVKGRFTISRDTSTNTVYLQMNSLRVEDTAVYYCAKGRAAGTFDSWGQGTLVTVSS
VL: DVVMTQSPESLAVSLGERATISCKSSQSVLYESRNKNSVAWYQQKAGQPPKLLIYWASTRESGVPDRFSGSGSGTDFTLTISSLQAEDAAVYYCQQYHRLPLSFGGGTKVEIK

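This is the validation round: designs drawn from the data on random variants, tested in the same kind of assay. Group labels follow the data file (En: ensemble of fine-tuned language models; GP: Gaussian process model; HC: hill climbing; Gen: genetic algorithm; Gibbs: Gibbs sampling; a sequence that several methods proposed may carry one label only). The scFvs were displayed on barcoded MATa yeast, the peptide on MATalpha yeast. Pairs that bind mate more often; barcode pairs of the diploids are counted by sequencing. Each replicate has its own calibration line, from reference interactions of the BCL2 family. Mating was done six times.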

The parent's light chain CDRs are KSSQSVLYESRNKNSVA, WASTRES, QQYHRLPLS; each variant's own CDRs replace them letter for letter. Variants here have more than six changes. The read-out is the apparent dissociation constant on a log10 scale (nM): the lower, the stronger. A mean of the replicates is given; it leaves out those without a signal. Where no diploid with the target was found in any replicate, the entry reads "nd": below detection, most likely a poor binder, though not proof of it. Background: pairings of all light chain designs with three empty control strains gave a value in 4% of cases (median 2.64, 5th percentile 1.59). Values in that range, when seen in few replicates, are hard to tell from nonspecific mating. A sequence measured in both rounds can read differently, since the two assays cover different ranges. The authors averaged sequences with at least three values out of six and counted those with two or fewer as poor binders. The parent sequence was in this pool as ten entries: three were never detected, three once, and four in most replicates, with averages from 0.34 to 2.37.

With MIYGANRELGLAANSIA, DNVTRYN, QQYERLPLS [En_Gen] the result was 1.37 (4 of 6 replicates).
With ALSFEMSSPGLHSNNVA, SASKLCM, QQYFTLPLS [En_Gibbs] the result was 0.49 (5 of 6 replicates).
With QVTNISMPYGRNRNNIA, NTSERMH, QQYQMLPLA [En_Gibbs] the result was -0.04 (6 of 6 replicates).
With GVDHTMESGKQAPNSIA, NAEQLTI, QQYQRLPLS [En_Gibbs] the result was 0.42 (6 of 6 replicates).
With LIETLSQGMRLNWSAVA, EAHMLVQ, QHYARLPLS [En_Gibbs] the result was 1.12 (6 of 6 replicates).
With KLWGSPLEGQSELQAVA, QAEVLRQ, QQYNMLPLS [En_Gibbs] the result was 1.16 (6 of 6 replicates).
With IVSQLMIWGMHHKNSIA, EAQTRIN, QQYDRLPLF [En_Gen] the result was nd (0 of 6 replicates).
With KLAQGWLYESRNKNSVA, NASQREH, QQYHRLPLS [GP_Gibbs] the result was -0.23 (6 of 6 replicates).
With TIQQMMSLFSQTINNVA, EVSTREN, QQYDRLPLS [En_Gen] the result was 1.01 (5 of 6 replicates).
With KLDPSDLGESRNKNSVA, HASTREI, QQYHQLPLS [GP_Gibbs] the result was -0.26 (6 of 6 replicates).
With MVNGIMDHLSKHTNNVA, ETTTREK, QQYDRLPLS [En_Gen] the result was 0.71 (6 of 6 replicates).
With KISESWLYEPLNKNSVA, NASTRQM, QQYHRLPLS [GP_Gibbs] the result was -0.10 (6 of 6 replicates).
With HIDDFEPSEGEKWNAIA, QDATRLQ, QAYARLPLS [En_Gibbs] the result was 2.78 (3 of 6 replicates).
With TLTQSYLMESHNKNSVA, DLSTRGS, QQYHRLPLS [En_HC] the result was 1.19 (6 of 6 replicates).
With ALREDFYQEQVEMSAIA, DGEHLNN, QQYSMLPLS [En_Gibbs] the result was 1.31 (6 of 6 replicates).
With KMVKWESEGDRHAANIA, NANKATD, QQYYRLPLA [En_Gibbs] the result was 0.11 (6 of 6 replicates).
With KLPQWDLYEGRNKNSVA, SASTRFD, QQYHRLPLS [GP_Gibbs] the result was 0.00 (6 of 6 replicates).
With KLGMTLNLEMHKKDNVA, DLVTREN, QQYHRLPLS [En_Gen] the result was 1.56 (6 of 6 replicates).
With MLGELVMGLSRNYRSVA, DNSTREQ, QQYDRLPLS [En_Gen] the result was 2.59 (4 of 6 replicates).
With KLQQSVGMESRMVNNVA, AASTRED, QQYHRLPLS [GP_Gibbs] the result was 0.11 (6 of 6 replicates).
With NVDISQNTNYNHKSNVA, DHDERVI, QQYSRLPLS [En_Gibbs] the result was 0.00 (6 of 6 replicates).
With KITSTMRFEQKNKNNIA, EVSTRSK, QQYVRLPLA [En_Gen] the result was -0.35 (6 of 6 replicates).
With KVQQSELGESRHFNSVA, NASKRCS, QQYHRLPLS [GP_Gibbs] the result was 0.79 (6 of 6 replicates).
With KIYQFGLNHSHNTNSIA, DQTCRED, QQYDRLPLS [En_Gen] the result was 2.35 (5 of 6 replicates).
With KISQNMGETWRNKNSVA, EVSTVPS, QQYWRLPLS [En_HC] the result was 0.46 (6 of 6 replicates).
With HMSMLTLGGLRNRNSVA, QMTTREN, QQYDRLPLA [En_Gen] the result was 0.67 (6 of 6 replicates).
With HLGLVTMSEEAVRNSVA, NNSTREE, QQYDRLPLS [En_Gen] the result was 1.81 (6 of 6 replicates).
With KLSMTTEMEHKNRNSVA, ELVTRLN, QQYNRLPLS [En_Gen] the result was nd (0 of 6 replicates).
With NMRLGEGEIAQHGYNIA, GVDLRAA, QQYARLPLH [En_Gibbs] the result was 0.99 (6 of 6 replicates).
With KFQQQDEYSSRNKNSVA, NASTRSQ, QQYHRLPLS [GP_Gibbs] the result was -0.34 (6 of 6 replicates).
With KLSQVTEYEMHQKNNVA, DLTTRGS, QDYHRLPLS [En_HC] the result was 0.56 (6 of 6 replicates).
With KVKGMMHQMGTQHQNIA, DMAIKCD, QQYQRLPLH [En_Gibbs] the result was 0.62 (6 of 6 replicates).
With HISQSVGMTSRNHNSVA, ENSTRED, QQYDRLPLS [En_HC] the result was 1.61 (5 of 6 replicates).
With FLTYQQDQTGLQRNAIA, QVNLKEN, QQYGRLPFA [En_Gibbs] the result was 1.53 (1 of 6 replicates).

The closing 5 entries, repeated:

| CDR-L1 | CDR-L2 | CDR-L3 | group | mean log10 Kd (nM) | detected |
|---|---|---|---|---|---|
| KFQQQDEYSSRNKNSVA | NASTRSQ | QQYHRLPLS | GP_Gibbs | -0.34 | 6/6 |
| KLSQVTEYEMHQKNNVA | DLTTRGS | QDYHRLPLS | En_HC | 0.56 | 6/6 |
| KVKGMMHQMGTQHQNIA | DMAIKCD | QQYQRLPLH | En_Gibbs | 0.62 | 6/6 |
| HISQSVGMTSRNHNSVA | ENSTRED | QQYDRLPLS | En_HC | 1.61 | 5/6 |
| FLTYQQDQTGLQRNAIA | QVNLKEN | QQYGRLPFA | En_Gibbs | 1.53 | 1/6 |